Measured values: PubChem BioAssay AID1885 (Broad Institute, 2009)
Only a part is listed here, and it is no random draw. Calls of active or inactive are those of the source.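 Rule for the calls: active = mean inhibition across valid replicates above about 55% (limit read from the data); inconclusive = mean below that limit but half or more replicates reach it; inactive = mean below it, under half of replicates reach it.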

Test: inhibitors of intracellular T. cruzi growth, primary screen, luminescence, NIH3T3 host cells (AID 1885);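 note: signal also drops with host cell toxicity which is not excluded here; 0% = plate median of DMSO wells and 100% = zero luminescence signal; higher percent means less beta-gal luminescence so fewer parasites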
Conditions: T. cruzi beta-gal in NIH3T3, luminescence, 90 h; active compounds read high; concentration not given here
Summary of the method: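 Assay system: NIH/3T3 fibroblasts plus reporter T. cruzi. Amount: NIH/3T3 cells, 5,000 per well. Buffer or medium: DMEM, 2% fetal bovine serum. Doses: compound pinned at 50 nL/well, DMSO. Schedule: ≥90 h infection period, 3 h prior cell attachment. Signal: luminescent β-galactosidase signal after 60 min lysis. Read-out: parasite load inhibition, %.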

| SMILES | inhibition |
| --- | --- |
| CC(C)(C)C(=O)NC(Sc1ccncn1)C(Cl)(Cl)Cl (stereo not drawn) | inactive: -11.9% |
| CP(=O)(Oc1ccccc1)N1CCOC1=O (stereo not drawn) | inactive: -29.6% |
| Cc1ccc(NP(=O)(Oc2ccccc2)Oc2ccccc2)nc1 | inactive: 1.41% |
| CCc1ccc(OP(C)(=O)Nc2cccnc2)cc1 (stereo not drawn) | inactive: -11.9% |
| CCc1nc2c(n1)c1c(non1O)c1c2no[n+]1[O-] | inactive: -53.2% |
| O=[N+]([O-])c1cccc2n[nH]nc12 | inactive: 1.9% |
| CC(=O)N1C2C3N(C(C)=O)C1C1N(C(C)=O)C(C(N1C(C)=O)N3C(C)=O)N2C(C)=O | inactive: -2.32% |
| COc1ccccc1OP(C)(=O)Nc1c(C)n(C)n(-c2ccccc2)c1=O (stereo not drawn) | inactive: -11.1% |
| O=C(OCCCN1CCCC1)C(O)(c1ccccc1)C1CCCCC1 (stereo not drawn) | inactive: 18.8% |
| CCN(CC)CC(O)COC(=O)C(O)(c1ccccc1)C1CCCCC1 (stereo not drawn) | inactive: -3.2% |
| COc1ccc(OP(C)(=O)Nc2ccc(Br)cc2)cc1 (stereo not drawn) | inactive: -29.8% |
| COc1ccc(C2=NCC(CBr)S2)cc1 (stereo not drawn) | inactive: -3.16% |
| CC1CCN(C(=O)Oc2c(Cl)cc(Cl)c3cccnc23)CC1 | inactive: 15.5% |
| CN(C)C(=O)c1c([N+](=O)[O-])cc([N+](=O)[O-])cc1[N+](=O)[O-] | inactive: 43.6% |
| CC(C)=N/N=C(\N)N[N+](=O)[O-] | inactive: -5.25% |
| CN(C)C(=O)OCCc1n(C)cc[n+]1C | inactive: -4.41% |
| CCN(/C(=N/P(=O)(N1CCOCC1)N1CCOCC1)N1CCOCC1)c1ccc(OC)cc1 | inactive: -9.79% |
| CP(=O)(Nc1ccc(Cl)cc1)Oc1ccc(F)cc1 (stereo not drawn) | inactive: -1.73% |
| COc1ccccc1OP(C)(=O)Nc1ccccc1Br (stereo not drawn) | inactive: -6.88% |
| CC(C)(C)c1ccc(OP(C)(=O)O)cc1 | inactive: -16% |
| Nc1ccc([As](=O)(O)c2ccc(N)cc2)cc1 | inactive: -5.1% |
| C[N+]1=C2C=CC=CC=C2SC12C([N+](=O)[O-])=CC([N+](=O)[O-])=C[C-]2[N+](=O)[O-] (stereo not drawn) | inactive: 2.79% |
| CN1CCCC(OC(=O)C(c2ccccc2)c2ccccc2)C1 (stereo not drawn) | inactive: 8.21% |
| Clc1ccc(Cl)c(NC2=NCC(CBr)S2)c1 (stereo not drawn) | inactive: -3.66% |
| CN(C)CCOC(=O)C(O)(c1ccccc1)C1CCCC1 (stereo not drawn) | inactive: -8.72% |
| COc1ccccc1OP(=O)(Nc1ccc(C)cn1)Oc1ccccc1OC | inactive: 0.738% |
| COc1ccc(OP(C)(=O)Nc2ccccn2)cc1 (stereo not drawn) | inactive: -10.4% |
| Cc1ccc(OP(=O)(Nc2nccs2)Oc2ccc(C)cc2)cc1 | inactive: 4.65% |
